Assay outcomes as filed in PubChem.
Sa growth 42C – S. aureus growth inhibition; relative growth, % (concentration not given with the values); 0.53% of 170,000 active; S. aureus RN4220 growth, OD600, 20 h, 42 °C; active compounds read low;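 active means relative growth at most 50% at the other temperature and 20+ points below 30 °C, or under 10% at both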
GIV-Gai inh – inhibitors of GIV peptide binding to Galpha-i3, primary screen, biochemical, fluorescence polarization, FITC-GIV GBA peptide, rat Galphai3 | 90 min; hits give low values; scaled: aluminum fluoride 0%, vehicle 100% | percent of control (FP), % (concentration not given with the values) | 210,000 compounds, 0.42% hits | AID 1224905, 2016;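 active = replicate mean at 85% of control or lower, very high polarization wells dropped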;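 also: wells of about 15 µL received 100 nL stock; the first replicate is given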
HCMV UL50-53 inh – cytomegalovirus nuclear egress complex inhibition; 0.15% of 190,000 active; AID 1918969; inhibition, % (no concentration beside the values); HTRF UL50-UL53 interaction, normalized percent inhibition; in the data active means inhibition above about 27%, passing the limit was not always enough
* = called active by the depositor; . = no result given; ! = repeats disagree. In the library only some 0.7% were active in any assay of this set; here they are far more common.

Sample of the layout, 4 compounds:
[1] CC1CCc2ccc(F)cc2N1S(=O)(=O)c1ccc(Cl)s1 (stereo not drawn)
[2] COC(=O)c1ccc(NC(=O)/C(=C\c2ccc3c(c2)OCO3)NC(=O)c2ccccc2OC)cc1
[3] CN1CCc2c(sc3c2C(=O)NC(c2ccc(OC(=O)c4ccc(Cl)cc4)cc2)N3)C1 (stereo not drawn)
[4] CN1CCc2c(sc3c2C(=O)NC(c2ccc(OC(=O)c4ccccc4)cc2)N3)C1 (stereo not drawn)

Screen / compound no. | 1 | 2 | 3 | 4
HCMV UL50-53 inh | 9.0 | . | -92.9 | -122.7
Sa growth 42C | 97.2 | . | 91.7 | 116.9
GIV-Gai inh | 111.5 | 106.1 | 220.9 | 23.1*

The whole of this part, from the first entry:
[1] CC1CCc2ccc(F)cc2N1S(=O)(=O)c1ccc(Cl)s1 (stereo not drawn)
[2] COC(=O)c1ccc(NC(=O)/C(=C\c2ccc3c(c2)OCO3)NC(=O)c2ccccc2OC)cc1
[3] CN1CCc2c(sc3c2C(=O)NC(c2ccc(OC(=O)c4ccc(Cl)cc4)cc2)N3)C1 (stereo not drawn)
[4] CN1CCc2c(sc3c2C(=O)NC(c2ccc(OC(=O)c4ccccc4)cc2)N3)C1 (stereo not drawn)
[5] Cc1ccccc1CSc1nc2ccncc2n1Cc1ccccc1
[6] N#CC1=C(N)C(C#N)(C#N)C(c2ccccc2Cl)C2CN(Cc3ccccc3)CC=C12 (stereo not drawn)
[7] N#CC1=C(N)C(C#N)(C#N)C(c2ccco2)C2CN(Cc3ccccc3)CC=C12 (stereo not drawn)
[8] O=C(CSc1ncnc2c1oc1ccccc12)NCc1ccccc1

Screen / compound no. | 1 | 2 | 3 | 4 | 5 | 6 | 7 | 8
HCMV UL50-53 inh | 9.0 | . | -92.9 | -122.7 | -13.3 | . | -37.5 | 5.8
Sa growth 42C | 97.2 | . | 91.7 | 116.9 | . | . | 73.9 | .
GIV-Gai inh | 111.5 | 106.1 | 220.9 | 23.1* | 99.3 | 188.0 | -42.9* | .

[9] O=C(CSc1ncnc2c1oc1ccccc12)NC1CCCCC1
[10] Cc1ccc(CNC2=NCCNC23CCN(S(=O)(=O)c2ccc(C)cc2)CC3)cc1
[11] CCN1/C(=C\C=C\c2n(CC)c3cc([N+](C)(C)C)ccc3[n+]2CC)N(CC)c2cc([N+](C)(C)C)ccc21
[12] CCN1/C(=C/C=C/c2n(CC)c3cc(Cl)ccc3[n+]2Cc2ccccc2)N(Cc2ccccc2)c2ccc(Cl)cc21
[13] COc1ccccc1NC(=O)NCCn1c(C(F)(F)F)nc2cccnc21
[14] CCOC(=O)c1sc(-c2ccccc2)cc1N
[15] CCOC(=O)c1sc(-c2ccc(F)cc2)cc1N
[16] Cc1sc2ncnc(Nc3cccc(Cl)c3)c2c1S(=O)(=O)N1CCCCC1

Screen / compound no. | 9 | 10 | 11 | 12 | 13 | 14 | 15 | 16
HCMV UL50-53 inh | 62.5* | . | . | . | -2.7 | -1.4 | -8.5 | -12.7
Sa growth 42C | . | . | . | . | . | . | 48.2* | .
GIV-Gai inh | . | 102.0 | 94.3 | -62.4* | 113.6 | . | . | 101.9

[17] CCCCCN1/C(=C\C=C\c2n(CCCC)c3cc(Cl)c(Cl)cc3[n+]2CCCCC)N(CCCC)c2cc(Cl)c(Cl)cc21
[18] CCCCCCC(CC[n+]1c(/C=C/C=C2N(CC)c3cc(Cl)c(Cl)cc3N2CC)n(CC)c2cc(Cl)c(Cl)cc21)S(=O)(=O)[O-] (stereo not drawn)
[19] CCOC(=O)/C(C#N)=C1\C(=O)Nc2ccccc21
[20] N#C/C(C(N)=O)=C1/C(=O)Nc2ccc(Br)cc21
[21] C[C@@H](O)[C@H]1C(=O)N2C(C(=O)O)=C(SCCN=CN)C[C@H]12
[22] CC(O)[C@@H]1C(=O)N2C(C(=O)O)=C(SC3CNC(CNS(N)(=O)=O)C3)C(C)[C@@H]12 (stereo partly drawn)
[23] O=C(COC(=O)c1cccc(Cl)c1Cl)Nc1ccc2[nH]c(=O)[nH]c2c1
[24] Cc1c(Sc2ccc(Cl)cc2)cnn1C(=O)NC(C)C

Screen / compound no. | 17 | 18 | 19 | 20 | 21 | 22 | 23 | 24
HCMV UL50-53 inh | . | . | -21.6 | -18.3 | -34.0 | -25.8 | -7.6 | -2.1
Sa growth 42C | . | . | 103.6 | 9.1* | 29.5* | . | 110.3 | 99.3
GIV-Gai inh | -62.4* | 108.8 | 102.5 | . | 107.6 | . | . | 96.9

[25] Cc1c(Sc2ccc(Cl)cc2)cnn1C(=O)Nc1cccc(C(F)(F)F)c1
[26] O=C(Cn1nnc(-c2ccccc2F)n1)NCc1ccc2c(c1)OCO2
[27] CCc1ccc2c(C)nc(NC3=NC(C)(C)C=C(C)N3)nc2c1
[28] CCc1ccc2nc(Nc3nc4ccccc4c(=O)[nH]3)nc(C)c2c1
[29] CCOC(=O)COc1ccc(/C=C2\C(=O)NC(=O)N(c3ccc(Br)cc3)C2=O)cc1
[30] COc1ccc2nc3sc(C(=O)N4CCCC4)c(N)c3cc2c1
[31] Nc1c(C(=O)N2CCOCC2)sc2nc3c(cc12)CCCC3
[32] Cc1ccc2nc3sc(C(=O)O)c(N)c3cc2c1

Screen / compound no. | 25 | 26 | 27 | 28 | 29 | 30 | 31 | 32
HCMV UL50-53 inh | . | 5.6 | 48.6* | . | -4.2 | -55.4 | -72.9 | -108.5
Sa growth 42C | 4.5* | 102.2 | 68.2 | 103.1 | . | 142.8 | 115.5 | 72.9
GIV-Gai inh | 100.9 | . | . | 100.9 | 109.3 | -62.1* | 105.0 | 105.1

[33] Cc1cc(C)c2nc3sc(C(=O)N4CCOCC4)c(N)c3cc2c1
[34] C=CCOc1ccc(-c2nc3c(sc(=S)n3CC=C)c(=O)[nH]2)cc1OC
[35] Cc1csc(NC(=O)C(Cc2ccccc2)NS(=O)(=O)c2ccc(Br)s2)n1 (stereo not drawn)
[36] CCN(CC)c1ccc(C(c2c(C)n(C)n(-c3ccccc3)c2=O)c2c(C)n(C)n(-c3ccccc3)c2=O)cc1
[37] O=C(CC(Sc1ccc(Br)cc1)C(=O)O)c1ccc(Cl)cc1 (stereo not drawn)
[38] O=C(CC(SC1CCCCC1)C(=O)O)c1ccc(Br)cc1 (stereo not drawn)
[39] COc1ccc(-c2n[nH]c(CCNC(=O)Cc3ccc(OC)c(OC)c3)n2)cc1
[40] CCOc1cccc2cc(C(=O)OC)c(=O)oc12

Screen / compound no. | 33 | 34 | 35 | 36 | 37 | 38 | 39 | 40
HCMV UL50-53 inh | -105.5 | -19.5 | -30.5 | . | -12.4 | 4.8 | 8.2 | -93.8
Sa growth 42C | 98.7 | 92.3 | 80.1 | . | 2.0* | 131.1 | . | .
GIV-Gai inh | -49.5* | 101.3 | 105.2 | 111.3 | . | . | 111.8 | .

[41] COc1cccc2sc(Nc3sc4c(c3C(N)=O)CCCC4)nc12
[42] COc1ccc2nc(Nc3sc4c(c3C(N)=O)CCCC4)sc2c1
[43] Cc1ccc(CNC(=O)C2CCN(c3ncccc3S(=O)(=O)N3CCCCC3)CC2)cc1
[44] O=C1OC(c2ccccc2)=C/C1=C/c1ccc(Cl)cc1
[45] O=C1OC(c2ccccc2)=C/C1=C/c1ccccc1
[46] Cc1ccnc(SCC(=O)N2CCCN(c3ccc(=O)n(-c4ccccc4)n3)CC2)n1
[47] CCCCC(=O)NC(c1ccco1)c1cc(Cl)c2cccnc2c1O (stereo not drawn)
[48] CCC(=O)NC(c1ccco1)c1cc(Cl)c2cccnc2c1O (stereo not drawn)

Screen / compound no. | 41 | 42 | 43 | 44 | 45 | 46 | 47 | 48
HCMV UL50-53 inh | . | -19.2 | . | . | 0.6 | -27.5 | -22.4 | .
Sa growth 42C | 1.1* | . | . | 100.2 | -0.6* | . | 20.4* | 71.7
GIV-Gai inh | 148.1 | 131.1 | 105.4 | 102.1 | 98.9 | 97.0 | 107.1 | 100.5

[49] COc1cccc2c1C(=O)c1c(O)c3c(c(O)c1C2=O)C[C@@](O)(C(=O)CO)C[C@@H]3O[C@H]1C[C@H](N)[C@H](O)[C@H](C)O1
[50] COc1cccc2c1C(=O)c1c(O)c3c(c(O)c1C2=O)C[C@@](O)(C(=O)CO)CC3OC1CC(N)C(O)C(C)O1 (stereo partly drawn)
[51] CCc1cc(-c2[nH]ncc2-c2ccc(Br)cc2)c(O)cc1O
[52] CCc1cc(-c2[nH]ncc2-c2cnn(-c3ccccc3)c2)c(O)cc1O
[53] OC1CCC(Nc2ncc3nc(Nc4c(F)cc(F)cc4F)n(C4CCOC4)c3n2)CC1 (stereo not drawn)
[54] CC(=O)NC(Cc1c[nH]c2ccccc12)C(=O)Nc1cccc(C#N)c1 (stereo not drawn)
[55] COc1ccc(OC)c(S(=O)(=O)Nc2cnc(N3CCCC3)c(C(=O)O)c2)c1
[56] Cc1cc(C)c(S(=O)(=O)Nc2cnc(N3CCCC3)c(C(=O)O)c2)cc1C

Screen / compound no. | 49 | 50 | 51 | 52 | 53 | 54 | 55 | 56
HCMV UL50-53 inh | -177.5 | -163.0 | -25.8 | -14.8 | -5.9 | -10.4 | -26.6 | -20.8
Sa growth 42C | 1.8*! | . | . | 9.5* | . | 97.8 | . | .
GIV-Gai inh | -14.4* | . | . | . | . | . | 93.7 | 72.1*

[57] N#Cc1ccc(C(=O)Oc2ccc3ccccc3c2)cc1
[58] Cc1ccc(CN(C)Cc2cc(=O)oc3cc4c(cc23)CCC4)o1
[59] CN1CCC(N(C)Cc2cc(=O)oc3cc4c(cc23)CCC4)CC1
[60] CCCCNC(=S)Nc1ccc(SC(F)F)cc1
[61] CCCCNC(=S)Nc1ccc(OC)cc1
[62] N#Cc1nc2ccccc2[nH]1
[63] COc1ccc2oc(C(=O)OCC(=O)N(C)C)c(C)c2c1
[64] Cc1cc(C(=O)O)ccc1-n1c(C)ccc1C

Screen / compound no. | 57 | 58 | 59 | 60 | 61 | 62 | 63 | 64
HCMV UL50-53 inh | -17.1 | -25.3 | -69.7 | -20.7 | 14.0 | 9.1 | -25.6 | 34.3*
Sa growth 42C | 99.2 | 70.8 | 0.3* | 0.6* | 110.3 | 83.9 | 97.4 | 82.5
GIV-Gai inh | . | . | . | . | 104.1 | 104.8 | . | 96.8
